Reference: patent US20260384450A1, “MACROCYCLIC AMINOPYRIDINE COMPOUNDS AS EGFR INHIBITORS” (published 2026)
Read-outs that look alike come from different tables or passages of the source.

By UniProt entry, the sequences of proteins in these tests, tags left out. Where a name states a change or a piece, a line headed by the entry shows the natural chain unless it says otherwise. Chains listed by the source or under a name are the forms on record and can include a tag or linker. Residues count along the entry.
UniProt P00533, 25-1210 limits assumed: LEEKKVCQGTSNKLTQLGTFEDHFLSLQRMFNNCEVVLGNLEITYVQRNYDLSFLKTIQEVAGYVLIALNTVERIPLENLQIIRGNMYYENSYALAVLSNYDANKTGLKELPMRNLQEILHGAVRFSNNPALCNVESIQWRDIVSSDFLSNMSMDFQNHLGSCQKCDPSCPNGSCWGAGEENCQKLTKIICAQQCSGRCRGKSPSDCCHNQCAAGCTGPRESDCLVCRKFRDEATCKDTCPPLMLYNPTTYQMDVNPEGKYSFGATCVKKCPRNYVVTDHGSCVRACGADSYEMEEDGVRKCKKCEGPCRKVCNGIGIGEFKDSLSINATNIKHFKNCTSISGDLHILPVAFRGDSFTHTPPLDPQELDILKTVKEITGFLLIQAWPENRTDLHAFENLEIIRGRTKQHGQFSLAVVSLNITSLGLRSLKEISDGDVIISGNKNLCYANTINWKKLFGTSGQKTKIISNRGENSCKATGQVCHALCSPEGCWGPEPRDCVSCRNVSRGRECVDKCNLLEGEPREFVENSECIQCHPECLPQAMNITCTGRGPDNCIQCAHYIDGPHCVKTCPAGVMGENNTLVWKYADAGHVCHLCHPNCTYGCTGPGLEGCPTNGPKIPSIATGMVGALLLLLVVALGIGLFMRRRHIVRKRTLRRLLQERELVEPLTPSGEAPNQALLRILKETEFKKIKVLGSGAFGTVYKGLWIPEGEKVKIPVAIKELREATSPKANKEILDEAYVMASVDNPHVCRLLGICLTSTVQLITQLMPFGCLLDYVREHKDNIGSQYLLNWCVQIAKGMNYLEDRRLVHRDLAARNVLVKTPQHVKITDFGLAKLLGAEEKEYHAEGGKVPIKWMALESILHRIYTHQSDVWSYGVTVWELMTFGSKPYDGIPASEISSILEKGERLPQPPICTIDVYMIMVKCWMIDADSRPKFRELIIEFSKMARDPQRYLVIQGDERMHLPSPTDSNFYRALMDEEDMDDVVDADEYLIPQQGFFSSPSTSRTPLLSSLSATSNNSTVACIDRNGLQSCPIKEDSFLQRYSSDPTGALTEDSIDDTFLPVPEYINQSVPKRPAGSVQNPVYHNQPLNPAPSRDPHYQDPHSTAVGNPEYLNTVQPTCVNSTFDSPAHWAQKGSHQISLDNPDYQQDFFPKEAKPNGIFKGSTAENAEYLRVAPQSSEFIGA
UniProt P00533, 25-1210 C797S/L858R limits assumed: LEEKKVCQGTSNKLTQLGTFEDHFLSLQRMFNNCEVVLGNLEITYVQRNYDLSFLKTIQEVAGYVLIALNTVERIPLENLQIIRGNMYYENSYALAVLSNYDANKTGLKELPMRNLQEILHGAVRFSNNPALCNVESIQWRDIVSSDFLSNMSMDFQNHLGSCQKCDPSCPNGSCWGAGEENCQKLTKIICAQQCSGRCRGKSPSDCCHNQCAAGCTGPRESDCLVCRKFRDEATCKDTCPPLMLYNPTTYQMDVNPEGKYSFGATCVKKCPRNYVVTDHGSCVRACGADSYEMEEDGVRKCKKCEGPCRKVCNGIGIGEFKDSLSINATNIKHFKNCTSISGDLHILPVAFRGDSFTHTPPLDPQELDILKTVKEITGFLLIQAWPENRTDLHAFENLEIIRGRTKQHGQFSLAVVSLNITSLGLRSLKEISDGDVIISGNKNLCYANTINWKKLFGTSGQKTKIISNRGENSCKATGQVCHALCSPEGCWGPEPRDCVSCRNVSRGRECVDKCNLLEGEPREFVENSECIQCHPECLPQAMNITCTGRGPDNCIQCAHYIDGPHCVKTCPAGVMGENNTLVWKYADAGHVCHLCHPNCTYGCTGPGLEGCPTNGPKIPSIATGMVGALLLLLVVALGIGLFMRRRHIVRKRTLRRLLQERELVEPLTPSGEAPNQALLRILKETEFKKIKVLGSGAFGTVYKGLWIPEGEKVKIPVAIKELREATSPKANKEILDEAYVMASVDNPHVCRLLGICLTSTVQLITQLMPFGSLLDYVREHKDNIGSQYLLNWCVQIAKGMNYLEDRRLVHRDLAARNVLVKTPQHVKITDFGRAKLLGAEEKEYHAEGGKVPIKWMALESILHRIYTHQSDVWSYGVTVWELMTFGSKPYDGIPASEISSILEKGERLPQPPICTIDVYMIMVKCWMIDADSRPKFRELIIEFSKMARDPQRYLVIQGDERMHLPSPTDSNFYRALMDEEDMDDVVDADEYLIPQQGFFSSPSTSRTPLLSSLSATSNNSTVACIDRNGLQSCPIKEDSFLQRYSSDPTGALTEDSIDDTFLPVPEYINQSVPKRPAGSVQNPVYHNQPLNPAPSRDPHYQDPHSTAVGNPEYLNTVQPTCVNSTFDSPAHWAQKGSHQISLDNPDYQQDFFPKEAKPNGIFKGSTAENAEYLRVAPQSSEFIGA
UniProt P00533, 25-1210 T790M/C797S/L858R limits assumed: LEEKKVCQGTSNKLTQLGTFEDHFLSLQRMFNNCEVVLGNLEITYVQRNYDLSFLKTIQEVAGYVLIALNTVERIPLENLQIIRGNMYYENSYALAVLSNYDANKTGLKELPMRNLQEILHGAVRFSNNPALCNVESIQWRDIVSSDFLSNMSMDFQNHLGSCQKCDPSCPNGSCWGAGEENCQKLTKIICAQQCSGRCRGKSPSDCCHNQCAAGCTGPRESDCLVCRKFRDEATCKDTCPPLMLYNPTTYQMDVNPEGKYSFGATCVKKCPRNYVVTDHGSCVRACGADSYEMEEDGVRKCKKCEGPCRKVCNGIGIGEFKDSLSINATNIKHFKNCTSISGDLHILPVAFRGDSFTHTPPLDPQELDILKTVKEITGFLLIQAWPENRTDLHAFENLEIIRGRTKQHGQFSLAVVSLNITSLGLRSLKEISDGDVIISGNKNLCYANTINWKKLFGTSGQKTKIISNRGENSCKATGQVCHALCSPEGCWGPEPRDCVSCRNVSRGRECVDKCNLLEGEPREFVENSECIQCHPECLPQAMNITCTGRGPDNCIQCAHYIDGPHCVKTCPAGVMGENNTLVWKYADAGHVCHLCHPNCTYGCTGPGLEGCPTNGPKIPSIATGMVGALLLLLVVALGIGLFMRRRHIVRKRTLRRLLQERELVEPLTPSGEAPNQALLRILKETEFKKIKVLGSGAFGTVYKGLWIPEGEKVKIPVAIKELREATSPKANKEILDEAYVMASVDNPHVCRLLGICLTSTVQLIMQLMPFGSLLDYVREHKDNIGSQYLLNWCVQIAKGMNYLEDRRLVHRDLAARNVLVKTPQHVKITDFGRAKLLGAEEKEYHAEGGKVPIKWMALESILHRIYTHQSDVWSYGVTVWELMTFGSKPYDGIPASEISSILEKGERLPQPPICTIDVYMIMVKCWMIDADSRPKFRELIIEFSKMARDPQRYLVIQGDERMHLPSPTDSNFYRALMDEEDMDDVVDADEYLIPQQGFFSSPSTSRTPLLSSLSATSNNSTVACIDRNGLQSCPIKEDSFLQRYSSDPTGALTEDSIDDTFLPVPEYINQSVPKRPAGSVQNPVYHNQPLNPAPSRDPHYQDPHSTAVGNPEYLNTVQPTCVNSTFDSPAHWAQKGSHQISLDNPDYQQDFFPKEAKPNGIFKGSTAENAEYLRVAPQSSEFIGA
UniProt P00533, with tags, fused parts or gaps DEL746-750/C797S limits assumed: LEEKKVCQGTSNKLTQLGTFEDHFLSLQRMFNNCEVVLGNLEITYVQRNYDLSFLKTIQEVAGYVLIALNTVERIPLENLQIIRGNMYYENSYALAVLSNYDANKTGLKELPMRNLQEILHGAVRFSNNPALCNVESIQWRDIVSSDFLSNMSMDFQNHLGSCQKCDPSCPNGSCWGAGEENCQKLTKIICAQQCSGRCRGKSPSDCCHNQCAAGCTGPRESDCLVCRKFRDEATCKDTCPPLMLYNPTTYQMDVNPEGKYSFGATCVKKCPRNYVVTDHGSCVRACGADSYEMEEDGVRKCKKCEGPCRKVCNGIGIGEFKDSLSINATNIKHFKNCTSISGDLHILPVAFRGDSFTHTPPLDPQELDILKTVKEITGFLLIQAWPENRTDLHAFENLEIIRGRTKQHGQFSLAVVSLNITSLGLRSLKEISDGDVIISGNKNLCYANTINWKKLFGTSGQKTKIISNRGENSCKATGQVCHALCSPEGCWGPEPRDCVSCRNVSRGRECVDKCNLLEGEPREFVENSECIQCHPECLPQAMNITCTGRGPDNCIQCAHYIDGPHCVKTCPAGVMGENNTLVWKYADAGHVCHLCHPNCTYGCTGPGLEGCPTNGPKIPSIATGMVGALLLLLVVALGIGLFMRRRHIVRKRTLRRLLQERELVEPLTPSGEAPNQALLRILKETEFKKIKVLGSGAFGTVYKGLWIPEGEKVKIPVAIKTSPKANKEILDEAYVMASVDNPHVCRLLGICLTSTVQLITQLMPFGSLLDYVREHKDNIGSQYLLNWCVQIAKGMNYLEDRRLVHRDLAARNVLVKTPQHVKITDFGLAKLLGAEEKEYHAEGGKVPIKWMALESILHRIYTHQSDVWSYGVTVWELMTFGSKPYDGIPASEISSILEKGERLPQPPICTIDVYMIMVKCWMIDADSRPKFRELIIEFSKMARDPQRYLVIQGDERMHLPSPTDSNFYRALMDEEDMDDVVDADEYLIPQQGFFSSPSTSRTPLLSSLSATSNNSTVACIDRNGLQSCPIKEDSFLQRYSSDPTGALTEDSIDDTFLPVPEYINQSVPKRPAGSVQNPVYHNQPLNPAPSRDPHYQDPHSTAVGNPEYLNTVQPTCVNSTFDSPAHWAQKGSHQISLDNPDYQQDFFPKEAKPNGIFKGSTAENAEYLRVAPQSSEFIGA
UniProt P00533, with tags, fused parts or gaps DEL746-750/T790M/C797S limits assumed: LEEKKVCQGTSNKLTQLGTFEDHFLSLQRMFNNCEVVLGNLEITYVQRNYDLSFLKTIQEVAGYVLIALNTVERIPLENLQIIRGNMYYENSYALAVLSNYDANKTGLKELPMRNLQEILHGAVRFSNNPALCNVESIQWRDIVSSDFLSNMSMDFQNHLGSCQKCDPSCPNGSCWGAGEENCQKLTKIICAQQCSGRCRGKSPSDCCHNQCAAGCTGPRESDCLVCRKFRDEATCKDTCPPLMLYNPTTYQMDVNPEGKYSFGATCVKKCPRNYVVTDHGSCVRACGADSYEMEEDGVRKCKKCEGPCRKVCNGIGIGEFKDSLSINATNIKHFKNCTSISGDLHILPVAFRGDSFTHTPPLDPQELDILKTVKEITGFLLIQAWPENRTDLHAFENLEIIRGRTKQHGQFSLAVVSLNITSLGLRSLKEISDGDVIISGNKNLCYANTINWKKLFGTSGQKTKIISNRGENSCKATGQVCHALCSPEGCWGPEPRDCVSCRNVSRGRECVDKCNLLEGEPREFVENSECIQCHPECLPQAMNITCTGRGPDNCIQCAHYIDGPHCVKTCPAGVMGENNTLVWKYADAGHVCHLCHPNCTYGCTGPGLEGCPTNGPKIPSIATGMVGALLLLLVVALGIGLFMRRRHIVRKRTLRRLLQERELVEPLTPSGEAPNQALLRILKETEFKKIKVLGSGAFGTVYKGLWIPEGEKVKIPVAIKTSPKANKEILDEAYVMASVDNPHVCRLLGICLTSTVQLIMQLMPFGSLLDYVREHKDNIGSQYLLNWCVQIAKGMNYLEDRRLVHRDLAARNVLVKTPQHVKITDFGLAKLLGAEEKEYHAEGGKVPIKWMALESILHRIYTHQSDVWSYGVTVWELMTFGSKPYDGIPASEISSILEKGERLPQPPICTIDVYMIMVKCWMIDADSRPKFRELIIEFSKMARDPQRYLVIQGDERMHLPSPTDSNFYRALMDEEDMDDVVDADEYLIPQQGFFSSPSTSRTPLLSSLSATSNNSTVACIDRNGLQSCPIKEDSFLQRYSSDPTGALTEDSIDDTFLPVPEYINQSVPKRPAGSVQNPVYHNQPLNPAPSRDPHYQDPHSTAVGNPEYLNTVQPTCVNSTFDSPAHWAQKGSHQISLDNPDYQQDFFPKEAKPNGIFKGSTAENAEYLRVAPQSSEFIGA

Assays:
[1] = target: EGFR WT (Homo sapiens, UniProt P00533); test: Biochemical EGFR kinase assay (Lance Ultra TR-FRET), wildtype
Description: (§1) Biochemical EGFR kinase assays were conducted using Lance Ultra time-resolved fluorescence resonance energy transfer (TR-FRET) technology from Perkin-Elmer. Compounds of the invention were initially diluted to 20 mM in 100% DMSO for storage and made into kinase buffer solution to create a compound concentration ranging from 0.003 μM and 10 μM.
(§2) Briefly, each EGFR enzyme wildtype (EGFR WT), double mutant [del19/C797S (EGFR D19CS) and L858R/C797S (EGFR LRCS)], triple mutant [del19/T790M/C797S (EGFR D19TMCS) and L858R/T790M/C797S (EGFR LRTMCS)], serial diluted EGFR inhibitors, substrate of ULight-poly-GT peptide (PerkinElmer; TRF0100-M) and different concentrations of ATP (Km and 100 μM final assay concentration) were mixed in kinase assay buffer (50 mM HEPES pH 7.4, 10 mM MgCl2, 1 mM EGTA, 2 mM DTT and 0.01% Tween-20) and were added to a 384-well plate (Optiplate™ 384, white, PerkinElmer; 6007290).
(§3) Each kinase reactions were incubated at room temperature for 1 hour and then stopped by the addition of 4 μL of stop solution (10 mM EDTA). The specific Europium-labeled-anti-phosphopeptide antibody (PerkinElmer, AD0069) diluted in LANCE detection buffer was then added to a final concentration of 2 nM. After 60 minutes incubation at room temperature the LANCE signal was measured on an EnVision Multilabel Reader (Perkin-Elmer). Excitation wavelength was set at 320 nm and emission monitored at 615 nm (donor) and 665 nm (acceptor). The IC50 values were determined using GraphPad prism software (GraphPad Software, Inc., San Diego, CA, USA).

[2] = target: EGFR LRCS (L858R/C797S) (Homo sapiens, UniProt P00533, C797S/L858R); test: Biochemical EGFR kinase assay (Lance Ultra TR-FRET), double mutant L858R/C797S
Description: as §1, §2, §3

[3] = target: EGFR D19TMCS (del19/T790M/C797S) (Homo sapiens, UniProt P00533, C797S/DEL746-750/T790M); test: Biochemical EGFR kinase assay (Lance Ultra TR-FRET), triple mutant del19/T790M/C797S
Description: as §1, §2, §3

[4] = target: EGFR D19CS (del19/C797S) (Homo sapiens, UniProt P00533, C797S/DEL746-750); test: Biochemical EGFR kinase assay (Lance Ultra TR-FRET), double mutant del19/C797S
Description: as §1, §2, §3

[5] = target: EGFR LRTMCS (L858R/T790M/C797S) (Homo sapiens, UniProt P00533, C797S/L858R/T790M); test: Biochemical EGFR kinase assay (Lance Ultra TR-FRET), triple mutant L858R/T790M/C797S
Description: as §1, §2, §3

[6] = read-out: EGFR WT IC50, ATP 1 mM
[7] = read-out: EGFR LRCS IC50, ATP 1 mM
[8] = read-out: EGFR LRCS IC50, ATP Km
[9] = read-out: EGFR D19TMCS IC50, ATP 1 mM
[10] = read-out: EGFR D19TMCS IC50, ATP Km
[11] = read-out: EGFR D19CS IC50, ATP 1 mM
[12] = read-out: EGFR D19CS IC50, ATP Km
[13] = read-out: EGFR LRTMCS IC50, ATP 1 mM
[14] = read-out: EGFR LRTMCS IC50, ATP Km
[15] = read-out: IC50, EGFR WT, 1 mM, ATP 1 mM, EGFR wildtype
[16] = read-out: IC50, EGFR WT, Km, ATP at Km, EGFR wildtype
[17] = read-out: IC50, EGFR-LRCS, 1 mM, ATP 1 mM, EGFR L858R/C797S
[18] = read-out: IC50, EGFR-LRCS, Km, ATP at Km, EGFR L858R/C797S
[19] = read-out: IC50, EGFR D19TMCS, Km, ATP at Km, EGFR del19/T790M/C797S
[20] = read-out: IC50, EGFR-D19CS, 1 mM, ATP 1 mM, EGFR del19/C797S
[21] = read-out: IC50, EGFR-D19CS, Km, ATP at Km, EGFR del19/C797S
[22] = read-out: IC50, EGFR LRTMCS, 1 mM, ATP 1 mM, EGFR L858R/T790M/C797S
[23] = read-out: IC50, EGFR LRTMCS, Km, ATP at Km, EGFR L858R/T790M/C797S

IC50 [1, 6] [nM] | IC50 ([1]; read-out: EGFR WT IC50, ATP Km) [nM] | IC50 [2, 7] [nM] | IC50 [2, 8] [nM] | IC50 [3, 9] [nM] | IC50 [3, 10] [nM] | IC50 [4, 11] [nM] | IC50 [4, 12] [nM] | IC50 [5, 13] [nM] | IC50 [5, 14] [nM] | IC50 [1, 15] [nM] | IC50 [1, 16] [nM] | IC50 [2, 17] [nM] | IC50 [2, 18] [nM] | IC50 [3, 19] [nM] | IC50 [4, 20] [nM] | IC50 [4, 21] [nM] | IC50 [5, 22] [nM] | IC50 [5, 23] [nM] | Structure (SMILES)
> 1000 | 10 to 100 | > 1000 | < 10 | < 10 | < 10 | 10 to 100 | < 10 | < 10 | < 10 | – | – | – | – | – | – | – | – | – | Cc1nn(C)c2c1-c1nccc(n1)Nc1cc(c(-c3cc(OC(F)F)ccn3)cn1)N[C@@H](C)CCO2
– | – | – | – | – | – | – | – | – | – | > 1000 | 10 to 100 | 10 to 100 | < 10 | < 10 | 10 to 100 | 10 to 100 | 10 to 100 | < 10 | Cc1nn(C)c2c1-c1nccc(n1)Nc1cc(c(-c3ncc(CN4C[C@H](CS(C)(=O)=O)[C@H]4C)cc3F)cn1)NCC[C@H](C)O2
– | – | – | – | – | – | – | – | – | – | > 1000 | < 10 | 10 to 100 | < 10 | < 10 | < 10 | < 10 | < 10 | < 10 | Cc1nn(C)c2c1-c1nccc(n1)Nc1cc(c(-c3ncc(CN4CCC(C(C)(C)O)CC4)cc3F)cn1)N[C@@H](C)CCO2
> 1000 | 10 to 100 | 100 to 1000 | < 10 | < 10 | < 10 | 10 to 100 | < 10 | < 10 | < 10 | – | – | – | – | – | – | – | – | – | C[C@H]1CCOc2c(cnn2C)-c2nccc(n2)Nc2cc(c(-c3ncc(C(C)(C)O)cc3F)cn2)N1
> 1000 | < 10 | 10 to 100 | < 10 | < 10 | < 10 | < 10 | < 10 | < 10 | < 10 | – | – | – | – | – | – | – | – | – | C[C@H]1CCOc2c(cnn2C)-c2nccc(n2)Nc2cc(c(-c3ncc(CN4CCC(F)(CO)CC4)cc3F)cn2)N1
> 1000 | 100 to 1000 | > 1000 | 100 to 1000 | 10 to 100 | < 10 | > 1000 | 100 to 1000 | 100 to 1000 | < 10 | – | – | – | – | – | – | – | – | – | C[C@H]1CCOc2c(cnn2C)-c2nccc(n2)Nc2cc(c(-c3cc(N4CC(CC(F)(F)F)C4)ccn3)cn2)N1
> 1000 | < 10 | 100 to 1000 | < 10 | < 10 | < 10 | < 10 | < 10 | < 10 | < 10 | – | – | – | – | – | – | – | – | – | Cc1nn(C)c2c1-c1nccc(n1)Nc1cc(c(-c3ncc(CN4CC(OC(F)F)C4)cc3F)cn1)N[C@@H](C)CCO2
> 1000 | < 10 | 10 to 100 | < 10 | < 10 | < 10 | < 10 | < 10 | < 10 | < 10 | – | – | – | – | – | – | – | – | – | C[C@H]1CCOc2c(cnn2C)-c2nccc(n2)Nc2cc(c(-c3ncc(CN4CCCCC4)cc3F)cn2)N1
> 1000 | > 1000 | > 1000 | > 1000 | > 1000 | > 1000 | > 1000 | > 1000 | > 1000 | > 1000 | – | – | – | – | – | – | – | – | – | Cc1nn(C)c2c1-c1nccc(n1)Nc1cc(c(-c3ccn(C(F)F)n3)cn1)O[C@@H](C)CCO2
> 1000 | > 1000 | 10 to 100 | 10 to 100 | < 10 | < 10 | 10 to 100 | < 10 | 10 to 100 | < 10 | – | – | – | – | – | – | – | – | – | Cc1nn(C)c2c1-c1nccc(n1)Nc1cc(c(-c3ccc(C(F)F)cn3)cn1)NCC[C@H](C)O2
> 1000 | > 1000 | > 1000 | 100 to 1000 | 100 to 1000 | 10 to 100 | > 1000 | > 1000 | 100 to 1000 | 10 to 100 | – | – | – | – | – | – | – | – | – | C[C@H]1CCOc2c(cnn2C)-c2nccc(n2)Nc2cc(c(-c3ncccc3OCC(F)F)cn2)N1
– | – | – | – | – | – | – | – | – | – | > 1000 | < 10 | < 10 | < 10 | < 10 | < 10 | < 10 | < 10 | < 10 | Cc1nn(C)c2c1-c1nccc(n1)Nc1cc(c(-c3ncc(CN4CCC(C(C)(C)O)CC4)cc3F)cn1)NCC[C@H](C)O2
– | – | – | – | – | – | – | – | – | – | > 1000 | 10 to 100 | 100 to 1000 | < 10 | < 10 | 10 to 100 | < 10 | 10 to 100 | < 10 | Cc1nn(C)c2c1-c1nccc(n1)Nc1cc(c(-c3cc(C(C)(C)O)ccn3)cn1)N[C@@H](C)CCO2
> 1000 | > 1000 | > 1000 | 100 to 1000 | 100 to 1000 | 10 to 100 | > 1000 | > 1000 | 100 to 1000 | 10 to 100 | – | – | – | – | – | – | – | – | – | C[C@H]1CCOc2c(cnn2C)-c2nccc(n2)Nc2cc(c(-c3ncccc3OCC(F)(F)F)cn2)N1
– | – | – | – | – | – | – | – | – | – | > 1000 | < 10 | < 10 | < 10 | < 10 | < 10 | < 10 | < 10 | < 10 | Cc1nn(C)c2c1-c1nccc(n1)Nc1cc(c(-c3cnc(CN4CC5(COC5)C4)cn3)cn1)NCC[C@H](C)O2
> 1000 | > 1000 | > 1000 | > 1000 | 100 to 1000 | 10 to 100 | > 1000 | > 1000 | 100 to 1000 | < 10 | – | – | – | – | – | – | – | – | – | COc1cccnc1-c1cnc2cc1NC(C)CCCOc1c(cnn1C)-c1nccc(n1)N2 (stereo not drawn)
> 1000 | 10 to 100 | 10 to 100 | < 10 | < 10 | < 10 | 10 to 100 | < 10 | < 10 | < 10 | – | – | – | – | – | – | – | – | – | Cc1nn(C)c2c1-c1nccc(n1)Nc1cc(c(-c3ncc(CN4CC(O)C(C)(C)C4)cc3F)cn1)NCC[C@H](C)O2 (stereo partly drawn)
– | – | – | – | – | – | – | – | – | – | > 1000 | 10 to 100 | 10 to 100 | < 10 | < 10 | 10 to 100 | < 10 | < 10 | < 10 | Cc1nn(C)c2c1-c1nccc(n1)Nc1cc(c(-c3ncc(C(C)(C)O)cn3)cn1)NCC[C@H](C)O2
> 1000 | 10 to 100 | 100 to 1000 | 10 to 100 | 10 to 100 | < 10 | 10 to 100 | < 10 | < 10 | < 10 | – | – | – | – | – | – | – | – | – | Cn1ncc2c1OCC(C)(C)CNc1cc(ncc1-c1ccc(C(C)(O)C(F)(F)F)cn1)Nc1ccnc-2n1 (stereo not drawn)
> 1000 | > 1000 | > 1000 | > 1000 | > 1000 | 100 to 1000 | > 1000 | > 1000 | > 1000 | < 10 | – | – | – | – | – | – | – | – | – | Cn1ncc2c1OCCNc1cc(ncc1-c1ccn(C(F)F)n1)Nc1ccnc-2n1
> 1000 | < 10 | 10 to 100 | < 10 | < 10 | < 10 | < 10 | < 10 | < 10 | < 10 | – | – | – | – | – | – | – | – | – | C[C@@H]1CCNc2cc(ncc2-c2cc(C(F)(F)F)n(C)n2)Nc2ccnc(n2)-c2cnn(C)c2O1
